Test system: collagen-induced arthritis
Experiment: Collagen-induced arthritis (CIA) model: clinical scores and paw volume
Assay type: in vivo, Lewis rats
Settings: Day 18; R paw; Group 3 (CIA + Dexamethasone); individual animals

Structure (SMILES): C[C@@H]1C[C@H]2[C@@H]3CCC4=CC(=O)C=C[C@]4(C)[C@@]3(F)[C@@H](O)C[C@]2(C)[C@@]1(O)C(=O)CO [Dexamethasone, dexamethasone]
- Animal paw volume: 1.17 mL
